Biological target: BRD4_BD1 (49-170) protein (Homo sapiens (Human), UniProt O60885)
Experiment: AlphaScreen assay: inhibition of binding of BRD4 bromodomain BD1 to acetylated histone H4 polypeptide
Conditions: read-out: ALPHA IC50, BRD4 BD1 vs acetylated H4 polypeptide

Compound | IC50
Cc1cc(-c2cc(NS(C)(=O)=O)ccc2OC2CCC(F)(F)CC2)n2cc[nH]c(=O)c12 | 71.3 nM
Cc1cc(-c2cc(S(C)(=O)=O)ccc2OC2CCC(F)(F)CC2)n2cc[nH]c(=O)c12 | 41.9 nM

— US11427593B2, “Bromodomain inhibitor compound and use thereof” (SHANGHAI INSTITUTE OF MATERIA MEDICA, CHINESE ACADEMY OF …, priority 2018, dated 2022)
